Assay results: article PMC8308639, “Synthesis and Human Carbonic Anhydrase I, II, IX, and XII Inhibition Studies of Sulphonamides Incorporating Mono-, Bi- and Tricyclic Imide Moieties” (Pharmaceuticals, 2021)

Amino acid sequences for entries named in this document (tags omitted). A change or cut given only in a name is not applied to a line headed by its entry.
UniProt P00915: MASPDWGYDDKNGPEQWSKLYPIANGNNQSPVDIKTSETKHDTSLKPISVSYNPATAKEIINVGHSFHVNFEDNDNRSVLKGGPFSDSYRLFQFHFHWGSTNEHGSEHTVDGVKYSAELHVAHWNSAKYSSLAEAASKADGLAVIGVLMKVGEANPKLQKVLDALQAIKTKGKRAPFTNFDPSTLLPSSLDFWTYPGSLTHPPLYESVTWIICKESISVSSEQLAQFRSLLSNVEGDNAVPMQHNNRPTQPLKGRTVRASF

Experiments:
[1] = biological target: hCA I (Homo sapiens, UniProt P00915); assay: CA-catalysed CO2 hydration stopped-flow inhibition assay, hCA I
[2] = biological target: hCA II (Homo sapiens, UniProt P00918); assay: CA-catalysed CO2 hydration stopped-flow inhibition assay, hCA II; settings: read-out: Ki (nM) hCA II, mean ± standard error, three assays
[3] = read-out: Ki (nM) hCA I, stopped-flow CO2 hydration, mean ± standard error, three assays

SMILES	Ki [1, 3]	Ki [2]	Ki [1]
NS(=O)(=O)c1ccc(CN2C(=O)c3c(Cl)c(Cl)c(Cl)c(Cl)c3C2=O)cc1 [Compound 7, 4-((4,5,6,7-Tetrachloro-1,3-dioxoisoindolin-2-yl) Methyl) Benzenesulphonamide]	427 ± 31 nM	5.2 ± 0.4 nM	
NS(=O)(=O)c1cccc(N2C(=O)c3c(Cl)c(Cl)c(Cl)c(Cl)c3C2=O)c1 [Compound 9, 3-(4,5,6,7-tetrachloro-1,3-dioxoisoindolin-2-yl) benzenesulphonamide]	444 ± 35 nM		
NS(=O)(=O)c1ccccc1N1C(=O)c2c(Cl)c(Cl)c(Cl)c(Cl)c2C1=O [Compound 10, 2-(4,5,6,7-tetrachloro-1,3-dioxoisoindolin-2-yl) benzenesulphonamide]		4520 ± 325 nM	
NS(=O)(=O)c1ccc(N2C(=O)c3c(Cl)c(Cl)c(Cl)c(Cl)c3C2=O)c(F)c1 [Compound 11, 3-fluoro-4-(4,5,6,7-tetrachloro-1,3-dioxoisoindolin-2-yl) benzenesulphonamide]	368 ± 15 nM	3.4 ± 0.2 nM	
NS(=O)(=O)c1ccc(N2C(=O)c3c(Cl)c(Cl)c(Cl)c(Cl)c3C2=O)c(Cl)c1 [Compound 12, 3-chloro-4-(4,5,6,7-tetrachloro-1,3-dioxoisoindolin-2-yl)benzenesulphonamide]		4.9 ± 0.3 nM	159 ± 12 nM
NS(=O)(=O)c1ccc(N2C(=O)c3c(Cl)c(Cl)c(Cl)c(Cl)c3C2=O)c(Br)c1 [Compound 13, 3-bromo-4-(4,5,6,7-tetrachloro-1,3-dioxoisoindolin-2-yl) benzenesulphonamide]	281 ± 15 nM	2.4 ± 0.1 nM	

Like-named read-outs stand apart in the source and are kept apart here.
